The results in this text go back to the OPERA property sets (Mansouri et al. 2018).

What is called logP is the decadic logarithm of the partition coefficient of the neutral form, usually between octanol and water. Consider `Cc1c([N+](=O)[O-])cccc1[N+](=O)[O-]`, for which the log partition coefficient (logP) was 2.1.

In the case of `Cc1ccc([N+](=O)[O-])c([N+](=O)[O-])c1`, the logP stood at 2.08.
